Most compounds without a hit are left out; they make up all but 1.3% or so of the library.
AF4-AF9 inh = inhibitors of AF4 peptide binding to AF9, primary screen, biochemical, AlphaScreen, biotin-AF4 peptide, FLAG-AF9, single point; Protein AF-9 (Homo sapiens), P42568; inhibition, % at 10 µM; 0.47% of 350,000 active;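 active = every replicate reaching a set inhibition limit, whatever the replicate mean, cut at about 25% in these data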;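 note: 0% = plate neutral control median and 100% = total signal loss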
ERAP1 HTS inh = human ERAP1 aminopeptidase inhibitors, primary screen, biochemical, single point, plate reader; recombinant ERAP1, Leu-AMC fluorescence, 60 min; inhibition, % at 10.7 µM; Endoplasmic reticulum aminopeptidase 1 (Homo sapiens), Q9NZ08; 0.15% of 340,000 active; AID 652197, 2013;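 active = mean replicate inhibition of at least 30%, or all replicates individually reaching that 30% level; inactive = mean below 30% and not every replicate reaching it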;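 note: 0% = neutral control wells and 100% = L-leucinethiol positive control wells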
UUG fidelity = alters start codon recognition fidelity in yeast | S. cerevisiae UUG-firefly luciferase reporter, luminescence/redox ratio | activity score, % at 18.7 µM | 350,000 compounds, 0.13% hits | AID 602363;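 active = replicate mean at a twofold rise or more, about +100% in these data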;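 note: firefly luciferase made from a UUG start codon reports start codon fidelity; reporter light over untreated wells divided by growth signal over untreated wells; some hits fall short of that in this replicate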
E-sel inducer = E-selectin induction in HUVECs, primary screen, imaging, HUVEC, immunofluorescence imaging, single point; AID 686992, 2013; activation, % at 7.58 µM; 0.37% of 260,000 active; normalized: neutral wells 0, TNF-alpha wells 100; P16581;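 active = mean E-selectin-positive cell signal at least 10% of the positive control, reached in at least 60% of replicates, without over 20% cell loss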
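System: HUVEC / Compound: single concentration / Signal: immunofluorescence imaging / Read-out: percent E-selectin-positive cells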
ARNT TACC3 PPI = disruptors of ARNT/TACC3 protein interaction, primary screen, biochemical, AlphaScreen, single concentration; Transforming acidic coiled-coil-containing protein 3 (Homo sapiens), Q9Y6A5; AID 623870, 2012; inhibition, % at 9.99 µM; AlphaScreen His-ARNT PAS-B/GST-TACC3 binding, luminescence; TACC3 fragment carries E629A point mutation; 0.66% of 390,000 active;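 active = mean inhibition of replicates at least 50% and at least half of replicates each reaching 50%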;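 note: 0% = complete ARNT plus TACC3 wells and 100% = ARNT alone without TACC3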
S100A4 MyoIIA = inhibitors of S100A4-myosin IIA peptide binding, primary screen, biochemical, fluorescence polarization, TAMRA-MyoIIA peptide. AID 652163, 2013. 0.14% of 360,000 active. inhibition, % at 10.7 µM. Protein S100-A4 (Homo sapiens), P26447;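 active = mean inhibition of at least 70% across replicates, with every replicate also reaching that level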
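Test system: S100A4 monomer protein. Medium: HEPES buffer with Ca2+, pH 7.2. Reagent: fluorescent myosin IIA peptide, 5 nM. Compound dosing: single-point compound testing. Timing: 5 min between mix addition and reading. Benchmarks: DMSO neutral and TFP positive wells.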
ARNT Alpha ctr-1 = AlphaScreen signal interference compounds, dose response, artefact control for ARNT-TACC3 interaction inhibitor project, biochemical, luminescence, cherry-pick. shares compounds with ARNT TACC3 PPI. His-ARNT PASB-GST AlphaScreen artifact counter-screen. AC50, µM (top dose mostly 68 µM), for inactives: at the top dose activity change, negative = signal decrease. 50% of 1,200 active;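 active = every separate test run was called active for a drop in luminescence, with AC50 within twice the top valid dose, actives reach about 71 µM in these data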
ARNT Alpha ctr-2 = AlphaScreen signal interference by compounds, dose response, artefact control for ARNT/TACC3 disruptor project, biochemical, dual-tagged ARNT, dry powder. shares compounds with ARNT TACC3 PPI. Dual-tagged His-ARNT PASB-GST AlphaScreen artifact counter-screen. AC50, µM. 70% of 45 active. AID 720564, 2013;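 active = luminescence drop, with half-maximal potency fitted within twice the sample's top valid dose, cut at about 70 µM in these data; inactive = the rest, including signal moving the wrong way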
Numbers without * were called inactive; nt = no result given.

SMILES | AF4-AF9 inh | ERAP1 HTS inh | UUG fidelity | E-sel inducer | ARNT TACC3 PPI | S100A4 MyoIIA | ARNT Alpha ctr-1 | others
Cc1ccc(-n2c(SCC(N)=O)nnc2-c2ccccn2)cc1 | nt | nt | -23 | 0 | 55* | nt | -21%
CCN(CC)C(=O)CSc1nnc(-c2ccccn2)n1-c1ccc(C)c(C)c1 | nt | nt | -13 | nt | 52* | nt | -9%
CCN(CC)C(=O)CSc1nnc(-c2cnccn2)n1-c1ccccc1 | nt | nt | 1 | nt | -1 | nt | nt
O=C(C[C@H]1C=C[C@H](NC(=O)CCN2CCCCC2)[C@@H](CO)O1)Nc1ccc(-c2ccccc2)cc1 | 5 | 0 | 4 | 0 | 3 | -4 | nt
C[C@H](NC(=O)C[C@H]1CC[C@@H]2[C@H](COC[C@H](O)CN2C(=O)Nc2cccc(F)c2)O1)c1ccccc1 | -1 | 3 | 11 | 0 | -10 | -46 | nt
c1ccc(-c2noc(-c3cccnc3)n2)nc1 | nt | nt | -33 | nt | 20 | nt | nt
c1ccc(-c2cnc(Nc3nc(-c4ccccn4)nnc3-c3ccccc3)s2)cc1 | nt | nt | nt | nt | nt | nt | 2.6µM*
O=c1[nH]c(-c2ccccn2)nc2sc(-c3ccccc3)cc12 | 0 | 0 | nt | 0 | 12 | -7 | nt
Cc1ccc(Nc2nc(-c3ccccn3)nnc2-c2ccccc2)cn1 | nt | nt | nt | nt | nt | nt | 0.42µM*
CN1C(=O)c2cc(NC(=O)C3CC3)ccc2OC[C@H]2O[C@H](CC(=O)NCCN3CCCC3)CC[C@@H]21 | 1 | 4 | -4 | 0 | -6 | 2 | nt
CC1(c2ccccc2)NC(=O)N(CC(=O)Nc2nc(-c3ccccn3)cs2)C1=O (stereo not drawn) | 1 | 1 | -34 | 0 | 61* | -10 | 56µM*
Cc1ccc(S(=O)(=O)CCC(=O)Nc2nc(-c3ccccn3)cs2)cc1 | -3 | -5 | -29 | nt | 80* | 0 | 71µM*
Cc1ccc(C2(C)NC(=O)N(CC(=O)Nc3nc(-c4ccccn4)cs3)C2=O)cc1 (stereo not drawn) | -20 | 1 | -11 | 2 | 54* | 4 | 33µM*
Cc1cc(C(=O)Nc2cccc3c2O[C@@H](CN(C)Cc2ccc4c(c2)OCO4)[C@@H](C)CN([C@H](C)CO)C3=O)n(C)n1 | -4 | 2 | 1 | -2 | 2 | 2 | nt
O=S1(=O)N=C(N/N=C/c2ccccn2)c2ccccc21 | nt | nt | nt | nt | 59* | nt | 24µM*
Cc1ccc2[nH]c3c(c2c1)CCCC3NCCO (stereo not drawn) | 9 | 2 | -12 | nt | 43* | -4 | -22%
CN(C)C(=O)c1cccc(-c2ccc([C@@H]3[C@H](CO)N4C(=O)CN(C(=O)C5CCC5)C[C@@H]34)cc2)c1 | -1 | 2 | nt | 0 | nt | -4 | nt
COc1ccc(-c2[nH]ncc2/C=N\NC(=O)c2cccs2)cc1OC | 2 | 5 | -10 | 0 | 51* | -3 | -22%
O=C(O)c1cn[nH]c1-n1cnnn1 | nt | nt | -24 | 9 | 61* | nt | -9%
C[C@H]1CN([C@@H](C)CO)C(=O)Cc2cc(NC(=O)Nc3ccc(F)cc3)ccc2O[C@@H]1CN(C)S(=O)(=O)c1ccccc1 | 0 | -4 | 5 | -3 | 4 | 6 | nt
C/C=C/c1cnc2c(c1)C(=O)N([C@@H](C)CO)C[C@H](C)[C@@H](CN(C)S(=O)(=O)c1ccc(OC)cc1)O2 | -2 | 1 | 1 | nt | 1 | -29 | nt
Cc1c(C(=O)N(C)C)sc2nc(-c3ccccn3)[nH]c(=O)c12 | nt | nt | -17 | nt | 72* | nt | 23µM* | ARNT Alpha ctr-2=15*
CCOc1cc(C(=O)NC2CC(C)(C)NC(C)(C)C2)cc(OCC)c1OCC | -8 | -1 | -3 | nt | 53* | -1 | -2%
O=C(C[C@@H]1C[C@H]2c3cc(NC(=O)C4CCOCC4)ccc3O[C@H]2[C@H](CO)O1)NCc1ccccn1 | 1 | 0 | -6 | -1 | -5 | 5 | nt
O=S(=O)(N[C@@H]1CC[C@@H](CCn2cc(-c3ccccn3)nn2)O[C@H]1CO)c1cccc(F)c1 | 1 | -3 | 4 | 0 | 91* | 0 | 60µM*

Random excerpt: two entries already listed
SMILES | AF4-AF9 inh | ERAP1 HTS inh | UUG fidelity | E-sel inducer | ARNT TACC3 PPI | S100A4 MyoIIA | ARNT Alpha ctr-1 | others
COc1ccc(-c2[nH]ncc2/C=N\NC(=O)c2cccs2)cc1OC | 2 | 5 | -10 | 0 | 51* | -3 | -22%
Cc1ccc(-n2c(SCC(N)=O)nnc2-c2ccccn2)cc1 | nt | nt | -23 | 0 | 55* | nt | -21%

The main list resumes; the three compounds before the break are reprinted first.
SMILES | AF4-AF9 inh | ERAP1 HTS inh | UUG fidelity | E-sel inducer | ARNT TACC3 PPI | S100A4 MyoIIA | ARNT Alpha ctr-1 | others
CCOc1cc(C(=O)NC2CC(C)(C)NC(C)(C)C2)cc(OCC)c1OCC | -8 | -1 | -3 | nt | 53* | -1 | -2%
O=C(C[C@@H]1C[C@H]2c3cc(NC(=O)C4CCOCC4)ccc3O[C@H]2[C@H](CO)O1)NCc1ccccn1 | 1 | 0 | -6 | -1 | -5 | 5 | nt
O=S(=O)(N[C@@H]1CC[C@@H](CCn2cc(-c3ccccn3)nn2)O[C@H]1CO)c1cccc(F)c1 | 1 | -3 | 4 | 0 | 91* | 0 | 60µM*
O=S(=O)(N[C@H]1CC[C@@H](CCn2cc(-c3ccccn3)nn2)O[C@@H]1CO)c1cccc(Cl)c1 | 3 | 0 | -13 | 0 | 95* | -5 | 48µM*
Cc1cccc(S(=O)(=O)N[C@@H]2CC[C@H](CCn3cc(-c4ccccn4)nn3)O[C@H]2CO)c1 | 1 | 0 | 11 | 0 | nt | 33 | nt
Cc1cccc(S(=O)(=O)N[C@@H]2CC[C@H](CCn3cc(-c4ccccn4)nn3)O[C@@H]2CO)c1 | 0 | -1 | -3 | 0 | nt | 1 | nt
O=S(=O)(N[C@H]1CC[C@H](CCn2cc(-c3ccccn3)nn2)O[C@@H]1CO)c1cccc(Cl)c1 | 0 | -2 | -7 | 0 | 109* | -3 | 49µM*
CC(C)CC#Cc1ccc2c(c1)O[C@@H](CN(C)S(=O)(=O)c1cccc(F)c1)[C@H](C)CN([C@H](C)CO)S2(=O)=O | 2 | -1 | -1 | 0 | 9 | -9 | nt
COc1cccc(S(=O)(=O)N[C@@H]2CC[C@@H](CC(=O)NCc3ccccc3)O[C@@H]2CO)c1 | -4 | 0 | -3 | 0 | -7 | 0 | nt
Nc1ccc2nc(-c3ccccn3)[nH]c2c1 | nt | nt | -34 | nt | 46* | nt | 45µM*
COc1ccc2nc(-c3ccccn3)[nH]c2c1 | 5 | 0 | -28 | nt | 40* | -6 | -7%
Nc1ccc2nc(-c3ccccc3)[nH]c2c1 | nt | nt | -27 | nt | -2 | nt | nt
O=C(Nc1ccc(F)cc1)N[C@H]1CC[C@@H](CC(=O)N2CCOCC2)O[C@H]1CO | -2 | -1 | -17 | 1 | -8 | -11 | nt
C[C@@H]1CN([C@@H](C)CO)C(=O)c2cccc(NC(=O)C3CCOCC3)c2O[C@@H]1CN(C)Cc1ccc2c(c1)OCO2 | 0 | -2 | -12 | nt | nt | -2 | nt
C[C@H]1CCCCO[C@@H](CN(C)C(=O)NC2CCCCC2)[C@@H](C)CN([C@@H](C)CO)C(=O)c2cc(NS(=O)(=O)c3ccccc3)ccc2O1 | 0 | 3 | 8 | 0 | 16 | -5 | nt

Assay outcomes: PubChem BioAssay, Broad Institute
